In patent US11607446B2, “Personalized immunotherapy against several neuronal and brain tumors” (Immatics Biotechnologies GmbH, priority 2013, dated 2023):
This is a selection: effects in other tests are not listed, and their absence says nothing.

Test system: CD8+ T cells
Assay: In vitro immunogenicity of HLA-A*02 class I peptides: in vitro T-cell priming with aAPCs loaded with peptide/MHC complexes and anti-CD28 antibody, pMHC multimer readout
Format: cell-based, human
Settings: HLA-A*02 peptides

ALSVRISNV
Donors (healthy donors, specific multimer+ CD8+ T-cell line after in vitro stimulation): +++ (50%-70% = +++)
Wells (in vitro stimulated wells of healthy donors' CD8+ T cells, specific multimer+ readout): + (<20% = +)
